1 compound from patent US20030036531A1, “Use of lysophospholipids to inhibit mammalian phospholipase D” (Wisconsin Alumni Research Foundation, priority 2001, published 2003) can be followed below.

In the assay the target is T1, partially purified PLD from rat brain membrane (Rattus norvegicus, UniProt P70496).
T1 construct: The activity of partially purified PLD from rat brain membrane was assayed; tissue Dr. Sue Goo Rhee (National Institutes of Health, Bethesda, Md.); host or cells: rat brain membranes
T1 sequence (P70496 1-1074): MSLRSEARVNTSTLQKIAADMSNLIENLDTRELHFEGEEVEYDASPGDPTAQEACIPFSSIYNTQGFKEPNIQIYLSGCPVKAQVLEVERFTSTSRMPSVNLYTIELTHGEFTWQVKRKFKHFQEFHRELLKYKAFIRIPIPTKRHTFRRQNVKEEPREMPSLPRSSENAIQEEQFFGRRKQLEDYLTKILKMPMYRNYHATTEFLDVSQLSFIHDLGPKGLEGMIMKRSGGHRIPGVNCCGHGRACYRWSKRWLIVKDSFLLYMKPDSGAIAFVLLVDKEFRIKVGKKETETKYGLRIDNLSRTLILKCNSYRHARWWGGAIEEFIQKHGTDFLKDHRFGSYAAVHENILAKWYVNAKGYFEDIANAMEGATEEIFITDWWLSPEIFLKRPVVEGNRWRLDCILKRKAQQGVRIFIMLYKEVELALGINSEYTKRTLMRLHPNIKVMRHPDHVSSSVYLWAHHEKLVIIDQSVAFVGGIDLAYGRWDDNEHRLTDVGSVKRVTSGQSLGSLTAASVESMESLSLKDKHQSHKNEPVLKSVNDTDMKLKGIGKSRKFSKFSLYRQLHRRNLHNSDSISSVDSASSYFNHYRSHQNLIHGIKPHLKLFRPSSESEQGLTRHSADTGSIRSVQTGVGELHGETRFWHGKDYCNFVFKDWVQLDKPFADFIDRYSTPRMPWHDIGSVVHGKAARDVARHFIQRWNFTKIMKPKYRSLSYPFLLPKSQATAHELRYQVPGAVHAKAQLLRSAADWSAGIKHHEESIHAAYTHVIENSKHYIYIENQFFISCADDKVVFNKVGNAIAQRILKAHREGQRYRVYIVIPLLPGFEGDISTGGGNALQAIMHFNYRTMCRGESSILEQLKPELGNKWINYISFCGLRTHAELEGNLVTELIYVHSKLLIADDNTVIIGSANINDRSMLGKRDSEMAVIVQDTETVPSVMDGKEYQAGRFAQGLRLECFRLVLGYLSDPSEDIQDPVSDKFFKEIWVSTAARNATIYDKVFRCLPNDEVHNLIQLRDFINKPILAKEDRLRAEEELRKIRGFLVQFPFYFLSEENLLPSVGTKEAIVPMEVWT
The assay can be described thus: Measurement of PLD activity (partially purified rat brain PLD, 14C-PC substrate, TLC). The format is biochemical. To be noted: 10 μM.

As for `OCC(O)CO` [glycerol, reference compound], the “inhibition of PLD activity by headgroups” value is recorded as “None of the headgroups such as choline, glycerol, inositol, or serine significantly inhibited PLD activity”.
